# Source: PubChem
# Sfp inh = inhibitors of Bacillus subtilis Sfp phosphopantetheinyl transferase | Q9F4F7 | Biochemical Sfp PPTase activity, qHTS | Potency, µM, inactives show max response, negative = inhibition, most hits filed as inhibitors | 310,000 tested, 3.5% active | AID 1490; active = well fitted inhibition curve with a large enough effect; inconclusive = small, poorly fitted or top-dose-only effect, or another doubt; inactive = no such curve, though single readings can be large or run the other way;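 note: the enzyme is Sfp with the accession as filed and its product quenches rhodamine fluorescence; potency is the fitted concentration of half-maximal effect; 0% = enzyme reaction without inhibitor and -100% = no enzyme wells; top concentration of the series not given in the record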
#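 With Hepes-Na pH 7.6 buffer containing 10 mM MgCl2, Sfp (15 nM) modified BHQ-2-YbbR (12.5 uM) using rhodamine-CoA (5 uM). Two reads 30 minutes apart at 525/598 nm yielded each well's rate.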
# G9a block = G9a (human) methyltransferase inhibition | Q96KQ7 | G9a H3K9 monomethylation, AlphaScreen, 2 h | Potency, µM (highest dose often 102 µM), without a hit: at the highest dose activity, negative = inhibition, hits mostly inhibitors | 350,000 tested, 8.8% active | AID 504332; note: potency is the fitted concentration of half-maximal effect; % is set by controls: 0 for no effect and ±100 for the full control effect; nearly all actives have a fitted effect of over 75% in size
#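 Quantitative HTS format: methyltransferase activity on a biotin-tagged H3K9 peptide is measured by AlphaScreen, using a rabbit anti-monomethyl-H3K9 antibody with streptavidin donor and anti-IgG acceptor beads. Final levels are 20 nM enzyme, 500 nM peptide, 20 uM SAM; 2 h RT.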
# Lamin A splicing = changes lamin A minigene splicing in HeLa cells. HeLa LMNA splicing GFP/RFP minigene ratio, 48 h. Potency, µM (doses to about 46.1 µM), inactives show at the highest dose ratio change, negative = inhibition, usual class: inhibitors. 200,000 tested, 0.01% active; active = well fitted inhibition curve with a large enough effect in the signal ratio, with a control signal flat, not every such curve was filed as active; inconclusive = small, poorly fitted or top-dose-only effect, or effect the other way, or a change in a side signal; the % refers to the signal ratio; note: potency is the fitted concentration of half-maximal effect; % is set by controls: 0 for no effect and ±100 for the full control effect
#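 Read-out is the ratio of GFP to DsRed2 object intensity, acquired by 488 nm laser-scanning cytometry on HeLa lamin A-EGFP minigene reporter cells. Compound incubation 48 hrs at 37 °C in Opti-MEM with 2% FBS; DMSO 0.5% final.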
# KDM4E inh = inhibitors of human JMJD2E histone demethylase; JMJD2E catalytic domain, FDH-coupled NADH fluorescence (FDH is formaldehyde dehydrogenase); Potency, µM (series often up to 57.1 µM), without a hit: at the highest dose activity change, negative = inhibition, hits mostly inhibitors; 230,000 tested, 1.6% active; active = well fitted inhibition curve with a large enough effect, not every such curve was filed as active; inconclusive = small, poorly fitted or top-dose-only effect, or another doubt; inactive = no such curve, though single readings can be large or run the other way;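 note: potency is the fitted concentration of half-maximal effect; 0% = wells with enzyme and -100% = buffer wells without enzyme; nearly all actives have a fitted effect of over 50% in size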
# ALDH1A1 inh = inhibitors of human aldehyde dehydrogenase 1A1. P00352. Purified ALDH1A1, NADH fluorescence, propionaldehyde substrate. Potency, µM (titrated, usually from 75.3 µM), for inactives: at the highest dose activity, negative = inhibition, usual class: inhibitors. 220,000 tested, 7.3% active. AID 1030; active = well fitted inhibition curve with a large enough effect, not every such curve was filed as active; inconclusive = small, poorly fitted or top-dose-only effect, or another doubt; inactive = no such curve, though single readings can be large or run the other way;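 note: potency is the fitted concentration of half-maximal effect; plate controls were no enzyme wells and a reference inhibitor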
# miR-21 reporter = miR-21 reporter, rising signal. 340,000 tested, under 10 active. Potency, µM (highest dose often 38.3 µM), for the others: at the highest dose reporter change, positive = more light. HeLa miR-21 FLuc reporter, luciferase, 48 h. AID 2288; active = well fitted rising curve with a large enough effect; inconclusive = small, poorly fitted or top-dose-only effect; inactive = no such curve, though single readings can be large or run the other way;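 further: % of control where 0% means no effect; miR-21 action dims this reporter so a rising signal means less miR-21 action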
#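 Luminescence from a firefly luciferase reporter carrying a miR-21 binding site downstream, stably expressed under a CMV promoter in HeLa cells that make miR-21 endogenously, reports miRNA modulation after 48 h compound exposure up to approximately 40uM final.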
# The depositor's hits bear a star; ? = inconclusive; / = no result; [ ] = another dose, or the depositor's remark. Sampled rows, rich in hits. Any-hit rate of the full collection: about 13%. Unless noted, calls come from the whole dose curve; as a rule, active = well fitted curve in the direction sought with a large enough effect; inconclusive = small, poorly fitted or top-dose-only effect, or another doubt; inactive = no such curve, though single readings can be large; an effect the other way counts as inactive or inconclusive.
cpd	compound	Sfp inh	G9a block	Lamin A splicing
1	COc1ccc(-c2nnc(SC(C(=O)c3c[nH]c4ccccc34)c3ccccc3)n2N)cc1OC (stereo unspecified)	-5%	8.9µM*	?
2	COc1cc(/C=C/C(=O)O)cc(S(=O)(=O)Nc2ccc3nc(C)sc3c2)c1OC	40µM*	28%[12.7 µM]	/
3	Cc1nc2ccc(NS(=O)(=O)c3c(C)c(C)cc(C)c3C)cc2s1	-27%	14µM*	?
4	CCn1c(=O)c2sccc2n(CC(=O)NCCC2=CCCCC2)c1=O	8%	-14%	/
5	COc1ccc2c(c1)c1c(c(=O)n(-c3ccc(OC)c(OC)c3)c(=O)n1Cc1ccccc1F)n2C	/	?	/
6	COc1cccc2cc(C(=O)C3=C(O)C(=O)N(Cc4ccco4)C3c3cccnc3)oc12 (stereo unspecified)	?	?	3%
7	O=C(C1=C(O)C(=O)N(Cc2ccco2)C1c1cccnc1)c1cc2ccccc2o1 (stereo unspecified)	?	?	-1%
8	CCN1CCN(C(=O)CN(c2ccc(F)cc2)S(=O)(=O)c2ccc(OC)c(OC)c2)CC1	17%	17%	/
9	COc1ccc2[nH]c(=S)[nH]c2c1	-1%	4.5µM*	-1%
10	S=c1[nH]c2ccc(Cl)cc2[nH]1	-2%	1.6µM*	-9%
11	S=c1[nH]c2cc(Cl)ccc2s1	-6%	1.8µM*	5%
12	COc1cccc(C(=O)Nc2cccc(-c3nc4ncccn4c3C)c2)c1	/	1%[59 µM]	?

cpd	KDM4E inh	ALDH1A1 inh	miR-21 reporter
1	3%	?	0%
2	-11%	/	-5%
3	-10%	-15%	23%
4	/	/	7%
5	/	/	-7%
6	-7%	5.6µM*	-2%
7	-15%	14µM*	-1%
8	/	/	-11%
9	-2%	-6%	-6%
10	3%	8.9µM*	-4%
11	?	2.8µM*	-11%
12	/	/	-11%

# Profiles from above. Values in the order: Sfp inh, G9a block, Lamin A splicing, KDM4E inh, ALDH1A1 inh, miR-21 reporter
# COc1cc(/C=C/C(=O)O)cc(S(=O)(=O)Nc2ccc3nc(C)sc3c2)c1OC is listed with 40µM*, 28%[12.7 µM], /, -11%, /, -5%
# COc1ccc2c(c1)c1c(c(=O)n(-c3ccc(OC)c(OC)c3)c(=O)n1Cc1ccccc1F)n2C is listed with /, ?, /, /, /, -7%
# COc1cccc2cc(C(=O)C3=C(O)C(=O)N(Cc4ccco4)C3c3cccnc3)oc12 (stereo unspecified) is listed with ?, ?, 3%, -7%, 5.6µM*, -2%
# CCN1CCN(C(=O)CN(c2ccc(F)cc2)S(=O)(=O)c2ccc(OC)c(OC)c2)CC1 is listed with 17%, 17%, /, /, /, -11%

# (continued)
cpd	compound	Sfp inh	G9a block	Lamin A splicing
13	Cc1ccc(N/N=C2\CS(=O)(=O)N(C)c3ccsc32)cc1	-18%	45µM*	/
14	CCCC(=O)N/N=C1\CS(=O)(=O)N(C)c2ccsc21	1%	-14%	-6%[46 µM]
15	CN1c2ccsc2/C(=N/Nc2ccc(F)cc2)CS1(=O)=O	-13%	14µM*	/
16	O=C1O[C@@H]([C@@H](O)CO)[C@@H](O)[C@H]1O	10%	-41%[12.7 µM]	?
17	COc1ccc(NC(=O)Cn2ccn(-c3ccc(F)c(F)c3)c(=O)c2=O)cc1Cl	/	-20%[59 µM]	?
18	Cc1ccc(N2CC(C(=O)OCC(=O)Nc3cc(C)on3)CC2=O)c(C)c1 (stereo unspecified)	16%	17%	/
19	Cc1cc(C)cc(N2CC(C(=O)OCC(=O)Nc3cc(C)on3)CC2=O)c1 (stereo unspecified)	2%	50µM*	/
20	COC(=O)c1ccccc1NC(=O)c1ccc(=O)n(Cc2cccc(C)c2)c1	/	4%[59 µM]	15%[46 µM]
21	Cc1ccc(C(=O)Nc2ccc(S(=O)(=O)O)c3cc(S(=O)(=O)O)cc(S(=O)(=O)O)c23)cc1NC(=O)c1cccc(NC(=O)Nc2cccc(C(=O)Nc3cc(C(=O)Nc4ccc(S(=O)(=O)O)c5cc(S(=O)(=O)O)cc(S(=O)(=O)O)c45)ccc3C)c2)c1	-3%	0.28µM*	?
22	Cc1ccccc1NC(=O)c1cccc(S(=O)(=O)Nc2cccc(C(=O)O)c2)c1	-8%	/	/
23	C(=N\c1nccs1)/c1c[nH]c2ccccc12	45µM*	?	2%
24	Cc1cccc(NC(=S)NC(=O)C2CC2)c1	10%	?	/

cpd	KDM4E inh	ALDH1A1 inh	miR-21 reporter
13	-11%	-3%	-49%
14	-9%	-15%	-3%
15	-7%	1%	-47%
16	-7%[25.5 µM]	8%[20.9 µM]	/
17	/	/	-1%
18	/	/	8%
19	/	/	0%
20	/	/	-3%
21	-2%	-1%	/
22	/	/	7%
23	2%	13µM*	2%
24	/	/	-37%

# The listing continues.
cpd	compound	Sfp inh	G9a block	Lamin A splicing
25	Cc1ccc(C2CC2C(=O)NNC(=S)Nc2cccc(Cl)c2)cc1 (stereo unspecified)	4%	?	-11%
26	Cc1ccc(C2CC2C(=O)NNC(=S)Nc2cccc(C)c2)cc1 (stereo unspecified)	-1%	?	?
27	Cc1ccc(NC(=S)NNC(=O)C2CC2c2ccc(C)cc2)cc1 (stereo unspecified)	16%	?	-9%
28	O=C(NNC(=S)Nc1ccc(F)cc1)C1CC1c1ccc(Cl)cc1 (stereo unspecified)	8%	?	-10%
29	COc1ccc(NC(=S)NNC(=O)C2CC2c2ccc(C)cc2)cc1 (stereo unspecified)	4%	45µM*	?
30	COc1cccc(CN(C(=O)c2oc3ccccc3c2C)C2CCS(=O)(=O)C2)c1 (stereo unspecified)	/	-10%[59 µM]	/
31	COc1ccc(C2NC(=S)NC(O)(C(F)(F)F)C2C(=O)c2cccs2)cc1 (stereo unspecified)	14%	-11%[59 µM]	?
32	COc1ccc(C2NC(=O)NC(O)(C(F)(F)F)C2C(=O)c2ccc(F)cc2)cc1 (stereo unspecified)	24%	1%[12.7 µM]	-4%
33	Cc1ccc(C2NC(=O)NC(O)(C(F)(F)F)C2C(=O)c2cccs2)o1 (stereo unspecified)	16%	8%[59 µM]	-13%
34	COc1cc(C2NC(=O)NC(O)(C(F)(F)F)C2C(=O)c2cccs2)ccc1O (stereo unspecified)	9%	7%[59 µM]	1%
35	COc1cc(C2NC(=O)NC(O)(C(F)(F)F)C2C(=O)c2ccc(Cl)cc2)ccc1O (stereo unspecified)	18%	79µM*	2%
36	COc1ccc(-c2ccc(CCC(=O)O)n2CC(=O)Nc2cccc(Cl)c2C)cc1	/	?	/

cpd	KDM4E inh	ALDH1A1 inh	miR-21 reporter
25	-9%	7.1µM*	3%
26	-3%	18µM*	19%
27	21%	?	-7%
28	-4%	1%	-2%
29	2%	2.5µM*	-10%
30	/	/	-12%
31	-10%	10µM*	1%
32	-6%	?	-4%
33	-6%	?	-2%
34	-1%	22µM*	-35%
35	-5%	?	-2%
36	/	/	4%

# (next part)
cpd	compound	Sfp inh	G9a block	Lamin A splicing
37	COc1ccc(OC)c(NC(=O)Nc2cccc(OCc3cc(=O)n4cc(C)ccc4n3)c2)c1	/	1%[59 µM]	?
38	Cc1c(Cc2ccc3c(c2)OCO3)sc(NC(=O)c2cccc3ccccc23)c1C(N)=O	35µM*	7.1µM*	-5%
39	COC(=O)c1c(NC(=O)/C=C/C(=O)O)sc(Cc2ccccc2)c1C	0%	5%[59 µM]	?
40	Cc1nc(NC(=O)C2CCCC2)sc1Cc1ccc2c(c1)OCO2	-12%	?	-1%
41	CCOc1ccc(CC(=O)Nc2sc(Cc3ccccc3)c(C)c2C(N)=O)cc1OCC	20µM*	5%[2.33 µM]	0%
42	Cc1c(Cc2ccccc2)sc(NC(=O)c2ccco2)c1C(N)=O	-9%	5%[59 µM]	-14%

cpd	KDM4E inh	ALDH1A1 inh	miR-21 reporter
37	/	/	-28%
38	?	14µM*	4%
39	-14%	?	11%
40	2%	?	-78%
41	?	?	-11%
42	?	?	-14%
